According to patent US10905775B2, “Particulate constructs for release of active agents” (CELATOR PHARMACEUTICALS, INC., priority 2004, dated 2021):

Columns and labels:
[1] = Nanoparticle size by dynamic light scattering (DLS); assay type: physicochemical; conditions: for average diameter: nanoparticles after vortex mixing of THF solution with mPEG-PCL stabilizer (12 ml/min) against water (120 ml/min); for particle stability as shown by DLS: initial concentration of conjugate in DMF 4 wt %, PEG-b-PCL (5k-5k)
Experimental: A 300 mM sucrose solution is prepared, loaded into a 100 ml gas tight syringe, and fixed on a second syringe pump. […] At the mixer outlet, two samples are collected. The first sample is collected in a scintillation vial and analyzed for particle size by dynamic light scattering (DLS), and the second sample is collected in low temperature freezer vials, and freeze-dried. The freeze-drying cycle is the following: −40° C. overnight, −10° C. for a day, 4° C. for a day, and then room temperature for one day. […] The samples are checked visually for crystals/aggregates formation. […] A freeze-dried sample is dissolved in methanol to dissociate the nanoparticles, and the solution is tested for the presence of THF using CGC. Particle size may be determined by DLS. […] The sample collected in a scintillation vial from the mixer effluent is inserted into the DLS sample cell containing decalin scintillation fluid (maintained at 25° C. using a temperature bath), and left to equilibrate to the cell temperature. The run duration is 60 seconds, replicated three times. The particle size expressed as the hydrodynamic diameter is obtained using an ALV 5000 correlator and a second order cumulant fit.

[2] = Visual check / description of nanoparticle samples for crystals, aggregates, stability; assay type: physicochemical; conditions: nanoparticles stabilized with mPEG5-PCL7, visual observation
Experimental: A 300 mM sucrose solution is prepared, loaded into a 100 ml gas tight syringe, and fixed on a second syringe pump. […] At the mixer outlet, two samples are collected. The first sample is collected in a scintillation vial and analyzed for particle size by dynamic light scattering (DLS), and the second sample is collected in low temperature freezer vials, and freeze-dried. The freeze-drying cycle is the following: −40° C. overnight, −10° C. for a day, 4° C. for a day, and then room temperature for one day. […] The samples are checked visually for crystals/aggregates formation. […] A freeze-dried sample is dissolved in methanol to dissociate the nanoparticles, and the solution is tested for the presence of THF using CGC.

Substance: PCL-paclitaxel [paclitaxel-PCL]
- nanoparticles size after 60 hours ([1]; mPEG5-PCL6 stabilized nanoparticles, 60 hours): 93 nm
- average diameter ([1]; DLS): 75 nm

Substance: Rifampicin-VitES
- particle stability as shown by DLS [1]: stable

Substance: estradiol-VitES
- duration of nanoparticle stability ([1]; 3:1 molar ratio of VitES to estradiol-VitES): > 30 days
- increase in radius over the course of 48 hours ([1]; estradiol-VitES with mPEG-PCL, CIJ mixer, DLS): less than 10%

Substance: paclitaxel-VitES
- nanoparticles size after 17 hours ([1]; mPEG5-PCL7 stabilized nanoparticles, 17 hours): 134 nm
- average diameter ([1]; DLS): 126 nm
- visible crystals or aggregates in the sample [2]: No visible crystals or aggregates were observed

Substance: rifampicin-PCL
- particle stability as shown by DLS [1]: stable
